Assay results taken from PubChem BioAssay (EPA / NIEHS).
This is a selection; strong and weak results do not stand in their true shares. Active and inactive are the calls of the source. Rule for the calls: active = hit-call score of the fitted dose curve at least 0.9, where 1 is the maximum; inactive = score below 0.9.

Chains of the proteins cited; added tags and fusions are not shown.
UniProt P16581, whole entry: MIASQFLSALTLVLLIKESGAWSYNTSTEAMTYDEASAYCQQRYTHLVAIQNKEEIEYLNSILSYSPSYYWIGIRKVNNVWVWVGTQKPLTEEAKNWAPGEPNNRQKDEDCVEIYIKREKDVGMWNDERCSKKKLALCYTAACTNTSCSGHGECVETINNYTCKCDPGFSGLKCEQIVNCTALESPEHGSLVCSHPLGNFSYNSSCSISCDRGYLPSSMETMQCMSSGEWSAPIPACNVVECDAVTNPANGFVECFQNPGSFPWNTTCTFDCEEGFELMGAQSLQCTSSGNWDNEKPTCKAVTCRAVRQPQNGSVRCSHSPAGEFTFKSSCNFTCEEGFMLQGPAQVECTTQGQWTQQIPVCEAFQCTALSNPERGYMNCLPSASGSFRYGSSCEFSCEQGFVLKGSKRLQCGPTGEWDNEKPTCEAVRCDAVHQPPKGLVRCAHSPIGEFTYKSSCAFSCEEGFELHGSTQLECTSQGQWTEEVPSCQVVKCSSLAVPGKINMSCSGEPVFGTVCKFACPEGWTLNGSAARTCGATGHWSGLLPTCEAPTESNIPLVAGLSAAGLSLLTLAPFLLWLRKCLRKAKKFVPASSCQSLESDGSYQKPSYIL
UniProt P01375, whole entry: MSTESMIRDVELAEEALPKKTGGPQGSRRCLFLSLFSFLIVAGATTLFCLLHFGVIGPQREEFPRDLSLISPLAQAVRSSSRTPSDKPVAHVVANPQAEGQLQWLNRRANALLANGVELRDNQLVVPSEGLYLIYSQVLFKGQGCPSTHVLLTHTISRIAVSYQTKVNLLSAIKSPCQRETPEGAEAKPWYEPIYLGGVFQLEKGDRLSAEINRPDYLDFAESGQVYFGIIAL

How the values were obtained:
[1] = read-out: Interleukin-1 alpha (IL1a), IL1A (gene 3552); test: BSK_KF3CT_IL1a: BioMAP Diversity Plus: KF3CT Assay for Interleukin-1 alpha (IL1a) Biomarker Activity (AID 2283070); conditions: actives raise or lower the signal; primary human keratinocytes with fibroblasts
Procedure, shortened: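 Human keratinocyte plus foreskin fibroblast primary co-culture, sampled 24 h after chemical dosing. IL-1a measured by ELISA; responses fitted bidirectionally against DMSO baseline (negative control), so gain or loss of signal both count.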

[2] = read-out: TIMP metallopeptidase inhibitor 2 (TIMP2), TIMP2 (gene 7077); test: BSK_KF3CT_TIMP2: BioMAP Diversity Plus: KF3CT Assay for TIMP metallopeptidase inhibitor 2 (TIMP2) Biomarker Activity (AID 2283071); conditions: actives raise or lower the signal; primary human keratinocytes with fibroblasts
Procedure, shortened: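 Co-culture of human primary keratinocytes and foreskin fibroblasts, measured 24 h after chemical dosing. TIMP-2 quantified by ELISA and fitted in both directions relative to DMSO. Cytotoxicity checked in parallel cultures by SRB total-protein staining.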

[3] = read-out: Transforming growth factor beta 1 (TGFb1), TGFB1 (gene 7040); test: BSK_KF3CT_TGFb1: BioMAP Diversity Plus: KF3CT Assay for Transforming growth factor beta 1 (TGFb1) Biomarker Activity (AID 2283072); conditions: actives raise or lower the signal; primary human keratinocytes with fibroblasts
Procedure, shortened: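 Human keratinocyte/foreskin fibroblast co-culture; TGF-b1 measured by ELISA 24 h after dosing, fitted bidirectionally versus DMSO. Cytotoxicity checked in parallel cultures by total protein (SRB staining, 560 nm).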

[4] = read-out: C-C motif chemokine 2 (Homo sapiens) (UniProt P13500); test: BSK_KF3CT_MCP1: BioMAP Diversity Plus: KF3CT Assay for Monocyte Chemoattractant Protein 1 (MCP1/CCL2) Biomarker Activity (AID 2283073); conditions: actives raise or lower the signal; primary human keratinocytes with fibroblasts
Procedure, shortened: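 Human keratinocyte–foreskin fibroblast co-culture; MCP-1 measured by ELISA 24 h after dosing. Bidirectional fit vs DMSO; cytotoxicity tracked by SRB total protein in parallel cultures.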

[5] = read-out: Matrix Metallopeptidase 9 (MMP9), MMP9 (gene 4318); test: BSK_KF3CT_MMP9: BioMAP Diversity Plus: KF3CT Assay for Matrix Metallopeptidase 9 (MMP9) Biomarker Activity (AID 2283074); conditions: actives raise or lower the signal; primary human keratinocytes with fibroblasts
Procedure, shortened: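 Keratinocyte plus foreskin fibroblast human primary skin co-culture was dosed with chemical and MMP-9 was quantified by ELISA 24 h later. Bidirectional curve fitting used DMSO as negative control and activity baseline.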

[6] = read-out: urokinase plasminogen activator (uPA), PLAU (gene 5328); test: BSK_KF3CT_uPA: BioMAP Diversity Plus: KF3CT Assay for urokinase plasminogen activator (uPA) Biomarker Activity (AID 2283075); conditions: actives raise or lower the signal; primary human keratinocytes with fibroblasts
Procedure, shortened: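 Human keratinocyte plus foreskin fibroblast primary co-culture exposed to chemical for 24 h. uPA levels were quantified by ELISA, and activity was fitted bidirectionally against a DMSO negative-control baseline.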

CD40, CD40 (gene 958) [7] = test: BSK_LPS_CD40: BioMAP Diversity Plus: LPS Assay for CD40 Biomarker Activity (AID 2283076); conditions: actives raise or lower the signal; primary human HUVEC with PBMC
Procedure, shortened: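 HUVEC plus PBMC co-culture stimulated with LPS; CD40 quantified by ELISA 24 h after compound dosing. Fitting was bidirectional relative to DMSO. SRB staining of parallel cultures flagged overt cytotoxicity.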

[8] = read-out: E-selectin (Homo sapiens) (UniProt P16581); test: BSK_LPS_Eselectin: BioMAP Diversity Plus: LPS Assay for Eselectin Biomarker Activity (AID 2283077); conditions: actives raise or lower the signal; primary human HUVEC with PBMC
Procedure, shortened: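 Human umbilical vein endothelial cells co-cultured with PBMC under LPS stimulation; cell-surface E-selectin measured by ELISA 24 h after dosing. Change in either direction versus DMSO, with SRB total-protein staining in parallel cultures for cytotoxicity.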

[9] = read-out: Interleukin-8 (IL8), CXCL8 (gene 3576); test: BSK_LPS_IL8: BioMAP Diversity Plus: LPS Assay for Interleukin-8 (IL8) Biomarker Activity (AID 2283078); conditions: actives raise or lower the signal; primary human HUVEC with PBMC
Procedure, shortened: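 Human umbilical vein endothelial cells co-cultured with PBMC, LPS-stimulated, exposed to compound for 24 h. IL-8 quantified by ELISA; fitted in both directions against DMSO, with SRB total-protein staining of parallel cultures for cytotoxicity.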

[10] = BSK_LPS_SRB: Viability Assessment in the BioMAP Diversity Plus: LPS Assay (AID 2283079); conditions: primary human HUVEC with PBMC;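 note: total protein by sulforhodamine B absorbance as a cytotoxicity measure; measured one day after compound addition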
Procedure, shortened: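 Co-culture of human umbilical vein endothelial cells and PBMC, read 24 h after dosing. Total protein by 0.1% SRB staining after 10% TCA fixation, absorbance at 560 nm; bidirectional fit against DMSO.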

[11] = read-out: Interleukin-1 alpha (IL1a), IL1A (gene 3552); test: BSK_LPS_IL1a: BioMAP Diversity Plus: LPS Assay for Interleukin-1 alpha (IL1a) Biomarker Activity (AID 2283080); conditions: actives raise or lower the signal; primary human HUVEC with PBMC
Procedure, shortened: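 Human umbilical vein endothelial cells co-cultured with PBMC and stimulated with LPS; IL-1a measured by ELISA 24 h after dosing. Bidirectional fitting against DMSO; cytotoxicity checked by SRB staining in parallel cultures.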

[12] = read-out: Monocyte Chemoattractant Protein-1 (MCP1), CCL2 (gene 6347); test: BSK_LPS_MCP1: BioMAP Diversity Plus: LPS Assay for Monocyte Chemoattractant Protein-1 (MCP1) Biomarker Activity (AID 2283081); conditions: actives raise or lower the signal; primary human HUVEC with PBMC
Procedure, shortened: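 Human umbilical vein endothelial cells co-cultured with PBMC, LPS-stimulated; secreted MCP-1 measured by ELISA 24 h after compound addition. Bidirectional curve fitting against DMSO baseline; SRB total-protein staining in parallel cultures for cytotoxicity.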

[13] = BSK_LPS_PGE2: BioMAP Diversity Plus: LPS Assay for Prostaglandin E2 (PGE2) Biomarker Activity (AID 2283082); conditions: actives raise or lower the signal; primary human HUVEC with PBMC
Procedure, shortened: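 HUVEC plus human PBMC co-culture stimulated with LPS; secreted PGE2 quantified by ELISA 24 h after chemical dosing. Activity fitted bidirectionally against DMSO baseline; parallel SRB staining (0.1% SRB after 10% TCA fixation, 560 nm) flags overt cytotoxicity.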

[14] = read-out: Macrophage colony-stimulating factor (MCSF), CSF1 (gene 1435); test: BSK_LPS_MCSF: BioMAP Diversity Plus: LPS Assay for Macrophage colony-stimulating factor (MCSF) Biomarker Activity (AID 2283083); conditions: actives raise or lower the signal; primary human HUVEC with PBMC
Procedure, shortened: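 HUVEC–PBMC co-culture, M-CSF measured by ELISA 24 h after chemical dosing. Fitted in both directions relative to DMSO as negative control; overt cytotoxicity assessed by SRB total-protein staining in parallel cultures.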

[15] = read-out: Tissue Factor, F3 (gene 2152); test: BSK_LPS_TissueFactor: BioMAP Diversity Plus: LPS Assay for Tissue Factor Biomarker Activity (AID 2283084); conditions: actives raise or lower the signal; primary human HUVEC with PBMC
Procedure, shortened: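 Human umbilical vein endothelial cells co-cultured with PBMC were dosed with compound. Cell-surface CD142 was measured by ELISA 24 h later. Activity was fitted bidirectionally against DMSO, with SRB total-protein staining in parallel cultures for cytotoxicity.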

[16] = read-out: Tumor necrosis factor (Homo sapiens) (UniProt P01375); test: BSK_LPS_TNFa: BioMAP Diversity Plus: LPS Assay for Tumour Necrosis Factor alpha (TNFa) Biomarker Activity (AID 2283085); conditions: actives raise or lower the signal; primary human HUVEC with PBMC;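 for AC50: TNFa protein level quantified by ELISA in the co-culture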
Procedure, shortened: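 Human umbilical vein endothelial cells co-cultured with PBMC and stimulated with LPS. TNFa was measured by ELISA 24 h after chemical dosing, fitted bidirectionally relative to DMSO.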

[17] = read-out: Vascular cell adhesion molecule 1 (VCAM1), VCAM1 (gene 7412); test: BSK_LPS_VCAM1: BioMAP Diversity Plus: LPS Assay for Vascular cell adhesion molecule 1 (VCAM1) Biomarker Activity (AID 2283086); conditions: actives raise or lower the signal; primary human HUVEC with PBMC
Procedure, shortened: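 Human umbilical vein endothelial cells co-cultured with PBMC and stimulated with LPS; VCAM-1 measured by ELISA 24 h after dosing. Bidirectional curve fitting against DMSO baseline; cytotoxicity tracked in parallel by SRB total-protein staining.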

CD38, CD38 (gene 952) = test: BSK_SAg_CD38: BioMAP Diversity Plus: SAg Assay for CD38 Biomarker Activity (AID 2283087); conditions: actives raise or lower the signal; primary human HUVEC with PBMC
Procedure, shortened: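 Human HUVEC plus PBMC co-culture stimulated with superantigen; CD38 measured by ELISA 24 h after chemical dosing. Fluorescence read-out, bidirectional fit against DMSO; cytotoxicity tracked in parallel by SRB and Alamar Blue.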

CD40, CD40 (gene 958) [18] = test: BSK_SAg_CD40: BioMAP Diversity Plus: SAg Assay for CD40 Biomarker Activity (AID 2283088); conditions: actives raise or lower the signal; primary human HUVEC with PBMC
Procedure, shortened: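 HUVEC plus PBMC co-culture, superantigen-activated, with CD40 read by ELISA 24 h after dosing. Curves fitted in both directions against DMSO. Overt cytotoxicity checked by parallel SRB total-protein staining.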

CD69, CD69 (gene 969) = test: BSK_SAg_CD69: BioMAP Diversity Plus: SAg Assay for CD69 Biomarker Activity (AID 2283089); conditions: actives raise or lower the signal; primary human HUVEC with PBMC;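 for AC50: cell surface CD69 protein quantified by ELISA with fluorescence detection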
Procedure, shortened: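 Values derive from bidirectional fitting relative to DMSO vehicle. Cells: umbilical vein endothelium plus peripheral blood mononuclear cells, treated 24 h before fluorescent ELISA for CD69.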

## CC(C)OP(C)(=O)OC(C)C
[1]
  outcome: inactive
[2]
  outcome: inactive
[3]
  outcome: inactive
[4]
  outcome: inactive
[5]
  outcome: inactive
[6]
  outcome: inactive
CD40, CD40 (gene 958) [7]
  outcome: inactive
[8]
  outcome: inactive
[9]
  outcome: inactive
[10]
  outcome: inactive
[11]
  outcome: inactive
[12]
  outcome: inactive
[13]
  outcome: inactive
[14]
  outcome: inactive
[15]
  outcome: inactive
[16]
  outcome: inactive
[17]
  outcome: inactive
CD38, CD38 (gene 952)
  outcome: inactive
CD40, CD40 (gene 958) [18]
  outcome: inactive
CD69, CD69 (gene 969)
  outcome: inactive

## Cc1ccc([N+](=O)[O-])cc1[N+](=O)[O-]
[1]
  outcome: inactive
[2]
  outcome: inactive
[3]
  outcome: inactive
[4]
  outcome: inactive
[5]
  outcome: inactive
[6]
  outcome: inactive
CD40, CD40 (gene 958) [7]
  outcome: inactive
[8]
  outcome: inactive
[9]
  outcome: inactive
[10]
  outcome: inactive
[11]
  outcome: inactive
[12]
  outcome: inactive
[13]
  outcome: inactive
[14]
  outcome: inactive
[15]
  outcome: inactive
[16]
  outcome: inactive
[17]
  outcome: inactive
CD38, CD38 (gene 952)
  outcome: inactive
CD40, CD40 (gene 958) [18]
  outcome: inactive
CD69, CD69 (gene 969)
  outcome: inactive

## O=[N+]([O-])c1cccc([N+](=O)[O-])c1
[1]
  outcome: inactive
[2]
  outcome: inactive
[3]
  outcome: inactive
[4]
  outcome: inactive
[5]
  outcome: inactive
[6]
  outcome: inactive
CD40, CD40 (gene 958) [7]
  outcome: inactive
[8]
  outcome: inactive
[9]
  outcome: inactive
[10]
  outcome: inactive
[11]
  outcome: inactive
[12]
  outcome: inactive
[13]
  outcome: inactive
[14]
  outcome: inactive
[15]
  outcome: inactive
[16]
  outcome: inactive
[17]
  outcome: inactive
CD38, CD38 (gene 952)
  outcome: inactive
CD40, CD40 (gene 958) [18]
  outcome: inactive
CD69, CD69 (gene 969)
  outcome: inactive

## Cc1cccc([N+](=O)[O-])c1[N+](=O)[O-]
[1]
  outcome: inactive
[2]
  outcome: inactive
[3]
  outcome: inactive
[4]
  outcome: inactive
[5]
  outcome: inactive
[6]
  outcome: inactive
CD40, CD40 (gene 958) [7]
  outcome: inactive
[8]
  outcome: inactive
[9]
  outcome: inactive
[10]
  outcome: inactive
[11]
  outcome: inactive
[12]
  outcome: inactive
[13]
  outcome: inactive
[14]
  outcome: inactive
[15]
  outcome: inactive
[16]
  AC50: active: 2.84 µM
[17]
  AC50: active: 7.83 µM
CD38, CD38 (gene 952)
  outcome: inactive
CD40, CD40 (gene 958) [18]
  outcome: inactive
CD69, CD69 (gene 969)
  outcome: inactive

## Cc1ccc([N+](=O)[O-])c([N+](=O)[O-])c1
[1]
  outcome: inactive
[2]
  outcome: inactive
[3]
  outcome: inactive
[4]
  outcome: inactive
[5]
  outcome: inactive
[6]
  outcome: inactive
CD40, CD40 (gene 958) [7]
  outcome: inactive
[8]
  outcome: inactive
[9]
  outcome: inactive
[10]
  outcome: inactive
[11]
  outcome: inactive
[12]
  outcome: inactive
[13]
  outcome: inactive
[14]
  outcome: inactive
[15]
  AC50: active: 10.8 µM
[16]
  AC50: active: 31.8 µM
[17]
  AC50: active: 20 µM
CD38, CD38 (gene 952)
  outcome: inactive
CD40, CD40 (gene 958) [18]
  outcome: inactive
CD69, CD69 (gene 969)
  AC50: active: 6.68 µM

## Cc1c([N+](=O)[O-])cccc1[N+](=O)[O-]
[1]
  outcome: inactive
[2]
  outcome: inactive
[3]
  outcome: inactive
[4]
  outcome: inactive
[5]
  outcome: inactive
[6]
  outcome: inactive
CD40, CD40 (gene 958) [7]
  outcome: inactive
[8]
  outcome: inactive
[9]
  outcome: inactive
[10]
  outcome: inactive
[11]
  outcome: inactive
[12]
  outcome: inactive
[13]
  outcome: inactive
[14]
  outcome: inactive
[15]
  outcome: inactive
[16]
  outcome: inactive
[17]
  outcome: inactive
CD38, CD38 (gene 952)
  outcome: inactive
CD40, CD40 (gene 958) [18]
  outcome: inactive
CD69, CD69 (gene 969)
  outcome: inactive
